From publication PMC10350926 (2023) come the findings set out here.

Sequences of proteins named here, by UniProt entry; tags and fusion partners are left off. A change or cut given only in a name is not applied to a line headed by its entry.
UniProt P21817: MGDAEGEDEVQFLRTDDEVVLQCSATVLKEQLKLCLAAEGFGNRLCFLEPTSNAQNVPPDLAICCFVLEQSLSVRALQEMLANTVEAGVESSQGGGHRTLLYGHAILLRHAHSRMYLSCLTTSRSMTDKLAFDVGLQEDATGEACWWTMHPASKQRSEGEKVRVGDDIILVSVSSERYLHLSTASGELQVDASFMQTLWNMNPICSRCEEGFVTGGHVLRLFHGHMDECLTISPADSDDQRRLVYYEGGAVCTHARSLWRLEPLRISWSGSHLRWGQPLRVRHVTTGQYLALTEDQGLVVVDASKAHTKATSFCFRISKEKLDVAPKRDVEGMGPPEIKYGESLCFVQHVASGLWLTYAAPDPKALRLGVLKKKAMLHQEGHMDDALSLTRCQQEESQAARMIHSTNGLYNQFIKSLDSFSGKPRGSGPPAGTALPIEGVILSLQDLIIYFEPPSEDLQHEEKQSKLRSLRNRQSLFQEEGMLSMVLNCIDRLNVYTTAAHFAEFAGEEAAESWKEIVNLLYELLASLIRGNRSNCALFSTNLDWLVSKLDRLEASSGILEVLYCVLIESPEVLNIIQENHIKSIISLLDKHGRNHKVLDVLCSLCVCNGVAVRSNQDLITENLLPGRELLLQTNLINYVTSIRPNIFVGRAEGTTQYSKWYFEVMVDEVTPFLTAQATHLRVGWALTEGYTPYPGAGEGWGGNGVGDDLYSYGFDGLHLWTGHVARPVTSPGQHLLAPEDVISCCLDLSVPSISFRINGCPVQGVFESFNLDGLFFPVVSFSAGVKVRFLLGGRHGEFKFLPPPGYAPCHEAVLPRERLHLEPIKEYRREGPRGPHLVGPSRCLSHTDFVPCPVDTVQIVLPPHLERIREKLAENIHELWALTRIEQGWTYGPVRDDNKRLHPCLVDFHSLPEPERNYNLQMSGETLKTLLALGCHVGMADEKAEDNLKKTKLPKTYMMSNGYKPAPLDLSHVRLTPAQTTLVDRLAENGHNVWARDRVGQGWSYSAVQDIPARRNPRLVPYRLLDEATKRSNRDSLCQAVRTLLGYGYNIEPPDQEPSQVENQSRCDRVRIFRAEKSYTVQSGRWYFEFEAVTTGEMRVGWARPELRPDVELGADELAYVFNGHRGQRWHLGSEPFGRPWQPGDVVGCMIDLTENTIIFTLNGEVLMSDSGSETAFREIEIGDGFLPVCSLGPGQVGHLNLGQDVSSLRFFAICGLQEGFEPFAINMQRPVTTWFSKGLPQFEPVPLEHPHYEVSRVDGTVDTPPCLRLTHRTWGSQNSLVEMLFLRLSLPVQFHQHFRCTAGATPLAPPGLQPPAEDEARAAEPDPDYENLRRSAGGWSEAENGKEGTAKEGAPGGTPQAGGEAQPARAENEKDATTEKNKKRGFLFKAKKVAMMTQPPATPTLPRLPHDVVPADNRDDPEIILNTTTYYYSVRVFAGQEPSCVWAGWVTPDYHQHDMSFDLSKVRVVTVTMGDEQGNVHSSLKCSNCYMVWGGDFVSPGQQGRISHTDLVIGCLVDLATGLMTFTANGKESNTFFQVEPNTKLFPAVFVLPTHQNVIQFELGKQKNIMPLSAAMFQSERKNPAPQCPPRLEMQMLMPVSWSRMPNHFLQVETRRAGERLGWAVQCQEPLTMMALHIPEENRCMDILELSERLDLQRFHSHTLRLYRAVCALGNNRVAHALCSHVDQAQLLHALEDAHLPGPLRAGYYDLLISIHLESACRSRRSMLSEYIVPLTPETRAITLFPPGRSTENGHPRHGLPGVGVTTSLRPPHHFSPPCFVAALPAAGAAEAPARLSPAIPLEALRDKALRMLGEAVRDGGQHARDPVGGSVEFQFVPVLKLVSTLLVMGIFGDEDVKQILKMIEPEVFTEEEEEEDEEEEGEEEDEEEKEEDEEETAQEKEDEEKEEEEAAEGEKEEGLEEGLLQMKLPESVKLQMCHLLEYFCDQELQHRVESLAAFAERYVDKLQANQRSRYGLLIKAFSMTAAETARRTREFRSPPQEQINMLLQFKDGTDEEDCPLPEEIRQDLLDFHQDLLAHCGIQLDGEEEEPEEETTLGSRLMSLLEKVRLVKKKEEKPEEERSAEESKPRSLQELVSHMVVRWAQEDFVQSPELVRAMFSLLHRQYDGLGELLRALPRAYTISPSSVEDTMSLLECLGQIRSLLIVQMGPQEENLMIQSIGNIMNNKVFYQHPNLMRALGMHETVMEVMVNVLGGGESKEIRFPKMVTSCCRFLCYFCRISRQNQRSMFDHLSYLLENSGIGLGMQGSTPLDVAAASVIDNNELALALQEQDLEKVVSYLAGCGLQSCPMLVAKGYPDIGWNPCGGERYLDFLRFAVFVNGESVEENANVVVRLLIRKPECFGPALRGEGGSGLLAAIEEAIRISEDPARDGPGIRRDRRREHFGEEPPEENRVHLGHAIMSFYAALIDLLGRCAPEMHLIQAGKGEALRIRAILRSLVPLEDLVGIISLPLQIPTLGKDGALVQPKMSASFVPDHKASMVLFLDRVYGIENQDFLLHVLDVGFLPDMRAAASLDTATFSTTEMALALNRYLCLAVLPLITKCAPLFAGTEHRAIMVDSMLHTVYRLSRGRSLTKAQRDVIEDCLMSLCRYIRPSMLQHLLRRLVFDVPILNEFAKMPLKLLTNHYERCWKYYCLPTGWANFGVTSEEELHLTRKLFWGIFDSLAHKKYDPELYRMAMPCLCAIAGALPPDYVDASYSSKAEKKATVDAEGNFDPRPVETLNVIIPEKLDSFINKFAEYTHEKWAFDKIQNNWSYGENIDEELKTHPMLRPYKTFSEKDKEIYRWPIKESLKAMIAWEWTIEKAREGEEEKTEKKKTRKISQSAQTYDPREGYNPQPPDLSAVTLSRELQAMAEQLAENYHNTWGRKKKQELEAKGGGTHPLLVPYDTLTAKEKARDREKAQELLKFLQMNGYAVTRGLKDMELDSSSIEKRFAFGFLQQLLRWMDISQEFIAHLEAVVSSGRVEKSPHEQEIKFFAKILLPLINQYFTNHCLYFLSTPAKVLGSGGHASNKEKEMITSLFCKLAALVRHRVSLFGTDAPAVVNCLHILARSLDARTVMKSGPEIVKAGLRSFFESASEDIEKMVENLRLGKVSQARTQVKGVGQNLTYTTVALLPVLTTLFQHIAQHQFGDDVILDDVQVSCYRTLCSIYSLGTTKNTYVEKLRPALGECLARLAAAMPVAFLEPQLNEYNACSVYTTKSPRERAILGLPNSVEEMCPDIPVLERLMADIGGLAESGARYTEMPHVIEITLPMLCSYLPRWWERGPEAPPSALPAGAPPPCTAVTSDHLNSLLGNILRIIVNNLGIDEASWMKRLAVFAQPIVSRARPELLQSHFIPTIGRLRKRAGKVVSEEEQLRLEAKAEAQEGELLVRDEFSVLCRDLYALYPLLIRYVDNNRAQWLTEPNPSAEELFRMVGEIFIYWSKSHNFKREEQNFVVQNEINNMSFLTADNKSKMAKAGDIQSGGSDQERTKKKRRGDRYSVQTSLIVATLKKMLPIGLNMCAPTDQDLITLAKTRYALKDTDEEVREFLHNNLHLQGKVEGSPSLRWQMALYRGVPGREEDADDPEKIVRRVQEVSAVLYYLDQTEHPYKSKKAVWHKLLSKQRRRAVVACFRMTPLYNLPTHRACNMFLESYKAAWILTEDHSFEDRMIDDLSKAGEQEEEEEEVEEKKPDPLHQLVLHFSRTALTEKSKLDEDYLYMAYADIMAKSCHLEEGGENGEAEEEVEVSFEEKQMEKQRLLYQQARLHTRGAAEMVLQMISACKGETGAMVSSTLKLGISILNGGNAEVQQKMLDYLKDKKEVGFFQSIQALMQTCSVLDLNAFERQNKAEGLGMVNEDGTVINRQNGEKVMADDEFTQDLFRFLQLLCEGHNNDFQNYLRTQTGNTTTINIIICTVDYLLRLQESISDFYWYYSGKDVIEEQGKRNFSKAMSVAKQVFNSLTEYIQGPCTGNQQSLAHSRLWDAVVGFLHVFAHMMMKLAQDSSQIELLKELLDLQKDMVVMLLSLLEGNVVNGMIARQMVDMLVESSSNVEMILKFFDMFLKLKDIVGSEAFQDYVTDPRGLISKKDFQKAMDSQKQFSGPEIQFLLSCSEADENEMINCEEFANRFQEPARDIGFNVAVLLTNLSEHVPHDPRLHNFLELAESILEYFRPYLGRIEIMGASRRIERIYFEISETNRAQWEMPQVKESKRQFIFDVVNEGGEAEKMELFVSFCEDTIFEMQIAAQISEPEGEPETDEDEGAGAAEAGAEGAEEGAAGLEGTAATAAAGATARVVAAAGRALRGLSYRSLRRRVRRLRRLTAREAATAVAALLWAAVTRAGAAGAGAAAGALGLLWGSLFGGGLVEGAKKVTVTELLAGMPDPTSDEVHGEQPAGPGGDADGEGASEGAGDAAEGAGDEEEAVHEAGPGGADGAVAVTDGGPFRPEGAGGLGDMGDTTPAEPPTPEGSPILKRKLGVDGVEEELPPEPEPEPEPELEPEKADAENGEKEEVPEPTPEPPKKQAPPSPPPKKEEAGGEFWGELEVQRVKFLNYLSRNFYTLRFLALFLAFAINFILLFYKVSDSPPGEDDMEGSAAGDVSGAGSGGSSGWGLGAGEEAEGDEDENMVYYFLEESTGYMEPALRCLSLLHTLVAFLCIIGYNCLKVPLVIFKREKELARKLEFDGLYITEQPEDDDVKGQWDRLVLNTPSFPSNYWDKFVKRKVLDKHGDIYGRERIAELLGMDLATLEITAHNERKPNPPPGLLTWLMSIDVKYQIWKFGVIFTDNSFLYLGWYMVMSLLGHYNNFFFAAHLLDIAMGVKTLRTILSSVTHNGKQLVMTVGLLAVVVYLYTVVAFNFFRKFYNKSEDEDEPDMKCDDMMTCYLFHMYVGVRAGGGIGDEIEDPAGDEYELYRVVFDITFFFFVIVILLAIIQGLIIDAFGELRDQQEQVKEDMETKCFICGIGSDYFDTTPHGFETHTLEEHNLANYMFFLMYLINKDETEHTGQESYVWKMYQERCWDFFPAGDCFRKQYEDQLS

Where two headings read alike, the source gives them in different places.

For test [1], the target named is T1, RyR1 (Homo sapiens, UniProt P21817). Description: [35S]-calstabin1 radioligand filter binding to immunoprecipitated RyR1.
Test [2] addresses T1, RyR1. The test is described as above. This is another data set of the same source.

B1: calstabin1 (FKBP12) (protein)
chain: not shown
modifications: RyR1 from essential tremor cerebellum, PKA-phosphorylated S2844, oxidized and nitrosylated
Regarding B1, the affinity in the test with RyR1 [1], expressed as Kd, was 235 nM.

B2: calstabin1 (FKBP12) (protein)
chain: not shown
Take B2: in the test with RyR1 [2], binding was put at a Kd of 79.1 nM. That is a double-digit nanomolar value.
